{"source": "patent US20210114973A1", "about": "“PHARMACEUTICAL FORMULATIONS” (First Wave Bio, Inc., priority 2019, published 2021)", "test": "Effect of particle size on colonic exposure levels: single rectal dose of niclosamide suspension, blood and rectal mucosa samples", "details": "rabbit, colon tissue, other: rectal, 7.5 mg", "data": [{"smiles": "O=C(Nc1ccc([N+](=O)[O-])cc1Cl)c1cc(Cl)ccc1O", "note": "[milled niclosamide, 5-chloro-N-(2-chloro-4-nitrophenyl)-2-hydroxybenzamide]", "values": [{"measurement": "concentration at 1 h", "value": 5030, "unit": "ng/mL"}]}]}
